# Results published in publication PMC7899671 (eLife, 2021).
# Test system: α1L9'Tβ2γ2L, α1L9'T/V279Aβ2γ2L, and α1β2γ2L receptors
# Experiment: MWC model of channel gating, global fit to estimated open probability
# Conditions: MWC model parameter
smiles,measurement,value
"CN1C(=O)CN=C(c2ccccc2)c2cc(Cl)ccc21 [DZ, diazepam]",d (factor by which DZ binding influences channel opening),0.59
